Here are results for one molecule from patent US8092020B2 (priority 2002, dated 2012).

For orientation: LD50 means the dose expected to kill half of the subjects tested.

Read-outs that look alike come from different tables or passages of the source.

The subject of data set [1] is Sprague-Dawley rat. To be noted: in vivo, ip.
In data set [2] the test system is Sprague-Dawley rat.
Data set [3] relates to Sprague-Dawley rat. To be noted: rats, intraperitoneal (I.P.); cited from earlier work.
For data set [4], the system named is Sprague-Dawley rat. The data set is described as follows: Miosis and pupillary light reflex after I.P. injection of parathion.

In the data set with Sprague-Dawley rat [1], `CCOP(=S)(OCC)Oc1ccc([N+](=O)[O-])cc1` gave an LD50 of 2.47 mg/kg. Also, the “maximal pupillary contraction observed among all parathion exposed animals” value with Sprague-Dawley rat [2] (3 μg/kg, light intensity 1.7 cd/m^2 (FIG. 3)) is reported as 93.1%; in the data set on Sprague-Dawley rat [4] (3 μg/kg, light intensity 1.7 cd/m^2 (FIG. 2)) it was 93.1%. For the same molecule, the “first dose group in which all animals lacked the pupillary light reflex” value in the data set with Sprague-Dawley rat [2] (direct ocular exposure) stood at 0.01 mg/kg. Besides, in the data set on Sprague-Dawley rat [2] (direct ocular exposure, 3 minutes application), the “EC50 for loss of the light reflex” value was 2.8 ± 0.9 µg/kg. Besides, the “literature LD50” value in the data set with Sprague-Dawley rat [3] is on record as 2 mg/kg. Besides, the “EC50 for loss of pupillary light reflex” value with Sprague-Dawley rat [4] (I.P.) was found to be 953 ± 69 µg/kg. Also, the “extrapolated EC50 for miosis (percent pupillary contraction)” value in the data set on Sprague-Dawley rat [4] (I.P., 15 minutes post-injection, light intensity 1.7 cd/m^2 (FIG. 2)) is 147 ± 36 ng/kg.
